From US8802663B2, “Pyrazole oxadiazole derivatives as S1P1 agonists” (Merck Serono SA, priority 2009, dated 2014) come the findings set out here.

Protein sequences, listed by entry. Tags and fused reporters are not part of them.
UniProt P21453, whole entry, species assumed: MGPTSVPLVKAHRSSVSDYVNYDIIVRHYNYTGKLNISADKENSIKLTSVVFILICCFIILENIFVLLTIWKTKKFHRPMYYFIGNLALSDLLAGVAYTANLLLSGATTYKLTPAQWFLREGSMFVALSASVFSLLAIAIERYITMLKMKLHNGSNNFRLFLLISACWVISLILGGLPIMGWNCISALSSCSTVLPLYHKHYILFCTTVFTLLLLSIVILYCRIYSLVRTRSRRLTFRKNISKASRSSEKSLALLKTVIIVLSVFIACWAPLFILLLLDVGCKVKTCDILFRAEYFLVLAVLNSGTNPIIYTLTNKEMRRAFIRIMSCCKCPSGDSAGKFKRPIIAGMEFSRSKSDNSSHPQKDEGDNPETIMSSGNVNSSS

This experiment deals with S1P1 (Homo sapiens (Human), UniProt P21453). Kind of experiment: Receptor binding assay, [33P]sphingosine 1-phosphate, membranes from CHO cells expressing S1P1. As to conditions: CHO cell membranes, 25 pM [33P]sphingosine 1-phosphate. The procedure: Receptor binding assay: Membranes were prepared from CHO cells expressing S1P1 or S1P3 for use in ligand and […] binding studies. Cells were suspended in 50 mM TRIS, pH 7.4, 2 mM EDTA, 250 mM Sucrose (buffer A) and 1× Complete protease inhibitor cocktail (Roche), and disrupted at 4° C. by N2 decompression using a cell disruption bomb (Parr Instrument). Following centrifugation at 1000 RPM for 10 min at 4° C., the supernatant was suspended in buffer A and centrifuged again at 19000 RPM for 60 min at 4° C. The pellet was then suspended in 10 mM HEPES, pH 7.4, 1 mM EDTA, 250 mM Sucrose (Buffer B), and 1× Complete EDTA-free protease inhibitor cocktail and homogenized using a potter. Membranes were flash frozen in liquid N2 and stored at −80° C. [33P]sphingosine 1-phosphate (3000 Ci/mmol; American Radiolabeled Chemicals, Inc.) was added to test compounds in DMSO. […] Binding was performed for 60 min at RT on a shaker and bound radioactivity was measured on a PerkinElmer 1450 MicroBeta counter. Specific binding was calculated by subtracting remaining radioactivity in the presence of 1000-fold excess of unlabeled SIP. Binding data were analyzed using the GraphPad Prism program.

pKi: −log10 of the molar value.

The pKi is −log10 of the Ki, conventionally taken in molar units. For the compound `c1cc(-c2c(-c3nc(-c4ccc(Cn5ccnc5)cc4)no3)cnn2C2CCCCC2)ccn1` [Example 136, 4-{2-Cyclohexyl-4-[3-(4-imidazol-1-ylmethyl-phenyl)-[1,2,4]oxadiazol-5-yl]-2H-pyrazol-3-yl}-pyridine], the pKi was 8.69.

Consider `c1cc(-c2c(-c3nc(-c4ccc(Cn5ccnc5)cc4)no3)cnn2C2CCCCC2)ccn1` [Example 148], for which the pKi is 8.68.
